Results on one sequence are retold here after patent US7332474B2, “Peptides and related compounds having thrombopoietic activity” (Amgen Inc., priority 2001, dated 2008).

Protein sequences, listed by entry. Tags and fused reporters are not part of them. Residues count along the entry.
UniProt P40238, 26-635: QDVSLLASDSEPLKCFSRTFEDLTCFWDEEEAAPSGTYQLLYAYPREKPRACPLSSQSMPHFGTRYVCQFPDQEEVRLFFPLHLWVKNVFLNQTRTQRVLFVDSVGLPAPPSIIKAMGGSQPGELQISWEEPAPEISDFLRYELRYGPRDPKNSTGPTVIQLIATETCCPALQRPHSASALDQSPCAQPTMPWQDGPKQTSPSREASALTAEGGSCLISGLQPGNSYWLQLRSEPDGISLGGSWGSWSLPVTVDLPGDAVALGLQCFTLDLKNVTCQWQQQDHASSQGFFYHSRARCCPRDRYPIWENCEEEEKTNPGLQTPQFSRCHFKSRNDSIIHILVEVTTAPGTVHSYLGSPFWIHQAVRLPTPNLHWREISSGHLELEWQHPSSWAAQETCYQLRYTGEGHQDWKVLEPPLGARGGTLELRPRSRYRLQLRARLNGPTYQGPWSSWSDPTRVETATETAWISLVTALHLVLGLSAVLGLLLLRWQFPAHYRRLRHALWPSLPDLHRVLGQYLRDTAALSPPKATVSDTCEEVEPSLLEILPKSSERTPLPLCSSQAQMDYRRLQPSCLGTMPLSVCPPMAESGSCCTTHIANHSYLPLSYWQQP

The target of the assay is hu-mpl (Homo sapiens, UniProt P40238). To be noted: BIACORE 3000, room temperature, hu-mpl immobilized on CM5 chip, 22 amino acid capped peptides.

What is called Kd is the free concentration of one partner at which half of the binding sites on the other are occupied at equilibrium, for simple one-to-one binding. With “SAQGIEGPTLRQWLAARALETV [TMP1, reference compound]”, binding was characterised by a dissociation constant (Kd) of 5.4 nM. This lies in the single-digit nanomolar range.
